tested on: Cysteinyl leukotriene receptor 1 (Cavia porcellus); assay: Dissociation constant (Kb) against LTD4

pKB	Compound
7.5	COc1cc(C(=O)O)ccc1Cn1ncc2ccc(NC(=O)OC3CCCC3)cc21
9.83	COc1cc(C(=O)NS(=O)(=O)c2ccccc2)ccc1Cc1cn(C)c2ccc(NC(=O)NC3CCCC3)cc12
7.79	COc1cc(C(=O)O)ccc1Cn1ncc2ccc(NC(=O)CC3CCCC3)cc21
> 8.9	O=C(O)CCS[C@H](c1ccccc1CCCCCCCCc1ccccc1)[C@@H](O)C(=O)O

Source: ChEMBL document CHEMBL1124803, “Evolution of a series of peptidoleukotriene antagonists: synthesis and structure/activity relationships of 1,3,5-substituted indoles and indazoles” (J Med Chem, 1990)
